## Binding of CDR-mutated scFvs to a peptide of the spike HR2 region

The target is the same throughout: PDVDLGDISGINAS, from the HR2 region of SARS-CoV-2 spike.

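The library (AAYL50) carries one to three amino acid substitutions per variant, with no insertions or deletions. Affinity was read by AlphaSeq, a pooled yeast mating assay with surface-displayed partners. Mating (16 h, 30 °C) was followed by selection of diploids and sequencing of their barcodes. Read counts were normalised to the haploid input and turned into Kd by a linear fit to BCL2-family pairs of known affinity, for each replicate. The assay was run in three technical replicates.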

Ab-14 is the parent antibody, in scFv form: VH, then the linker GGGGSGGGGSGGGGS, then VL. The heavy chain is unchanged in all variants.
VH: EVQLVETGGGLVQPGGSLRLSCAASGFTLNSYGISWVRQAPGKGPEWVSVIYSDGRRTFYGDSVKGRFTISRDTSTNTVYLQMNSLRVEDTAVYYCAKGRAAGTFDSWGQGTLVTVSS
VL: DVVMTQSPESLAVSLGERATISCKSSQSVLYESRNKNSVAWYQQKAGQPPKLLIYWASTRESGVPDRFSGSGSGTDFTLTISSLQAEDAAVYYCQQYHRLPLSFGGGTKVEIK

The parent's light chain CDRs are KSSQSVLYESRNKNSVA, WASTRES, QQYHRLPLS; each variant's own CDRs replace them letter for letter. All variants listed here change S26 of the VL, counted from its first residue. Each Kd is an estimate from the mating assay, the geometric mean of the replicates in which the pair was seen; lower is stronger. An entry "nd" has no value in the source: the pair was not observed among the diploids in any replicate. This suggests poor binding but is not conclusive. The list is sorted by this average, lowest first, undetected variants last. Background: pairings of library AAYL50 with three empty control strains gave a value in 18% of cases (median 15 µM, 5th percentile 970 nM). Values in that range, when seen in few replicates, are hard to tell from nonspecific mating.

CDR-L1,CDR-L2,CDR-L3,apparent Kd,detected
KSDQSVLYESRNKNSVA,WASQRES,QQYSRLPLS,2.3 nM,3/3
KYAQSVLYESRNKNSVA,WASTRES,QQYDRLPLS,3.3 nM,3/3
KSQQSVLYESRNKNSVA,WGSTRES,QQYHRLPLS,4.7 nM,3/3
KSNNSVLYESRNKNSVA,WASTRES,QQYHRLPLS,8.7 nM,3/3
KSNQSVLYESRNKNSVA,WASTREA,NQYHRLPLS,12 nM,3/3
KSKQSVLYNSRNKNSVA,WASTRES,QQYHRLPLS,13 nM,3/3
KSPQSVLPESRDKNSVA,WASTRES,QQYHRLPLS,14 nM,3/3
KSLDSVLYQSRNKNSVA,WASTRES,QQYHRLPLS,14 nM,3/3
KSKRSVGYESRNKNSVA,WASTRES,QQYHRLPLS,20 nM,3/3
KSKQSVLYESRNKNSVA,WASTRES,QQYHRLPLS,22 nM,3/3
KSDQSVLYESRNKNSVA,WASTREM,QQYHLLPLS,24 nM,3/3
KSEQSVLYESRWKNSVA,WASTRES,QQYRRLPLS,29 nM,3/3
KSQQSVLYESRNKDSVA,WGSTRES,QQYHRLPLS,38 nM,3/3
KSFQSVLYESRNKNSVA,WASTRES,QTYHRLPLS,46 nM,3/3
KSYQSVLYESRFKNSVA,WASTRES,QQYHRLHLS,50 nM,3/3
KPHQSVLYESRNKNSVA,WASTREH,QQYHRLPLS,53 nM,3/3
KSYDSVLYESRNENSVA,WASTRES,QQYHRLPLS,64 nM,3/3
KSGQSVLYESRNKQSVA,WASTRES,QTYHRLPLS,92 nM,3/3
KSIQSVDYVSRNKNSVA,WASTRES,QQYHRLPLS,130 nM,3/3
KSQNSVLYESRNKNSVA,WASTRES,QQYHRLPLK,130 nM,3/3
KSQQSVLYESRNKNSVA,WASTREN,AQYHRLPLS,150 nM,3/3
KPMQSVLYESRNKNSVA,WTSTRES,QQYHRLPLS,170 nM,3/3
KSCQSVLYESRNKNSVA,WASQRES,QQYHRLPLG,180 nM,2/3
KNMQSVLYESFNKNSVA,WASTRES,QQYHRLPLS,200 nM,3/3
KSGQSVLVESRNKNSVA,WASTRES,QQYHNLPLS,400 nM,3/3
KQLQSVLYESRAKNSVA,WASTRES,QQYHRLPLS,500 nM,3/3
KSTQSVLYESTNKNSVA,WASTRES,PQYHRLPLS,590 nM,3/3
KSPQSVLPESRNKNSVA,WASTREM,QQYHRLPLS,920 nM,1/3
KSNQSVLYESRRKNSVA,WASTRES,QQYHRLPLM,1.5 µM,3/3
KSHQCVLYESRNKNSHA,WASTRES,QQYHRLPLS,1.7 µM,1/3
KSEQSVLYESRNKNSVA,WASTQEI,QQYHRLPLS,2.4 µM,1/3
KSCQSVLYESRNKNSVV,WASTRES,QQYHRLPWS,2.4 µM,1/3
KSEQSVLYEQRNKNSVA,WASTRES,QQRHRLPLS,4.4 µM,1/3
KSIQSVLYESRNKNSVA,WASTRES,QQYHRLPMS,7.2 µM,3/3
KSMQSVLYESRNKPSVA,WASTRES,MQYHRLPLS,9.5 µM,1/3
KSKQSVLYESRNKNSVA,WAKTRES,QQYHRLVLS,12 µM,1/3
KSIQSVLYESRNKPSVI,WASTRES,QQYHRLPLS,14 µM,1/3
KSCQSVLYESRNKNAVA,WLSTRES,QQYHRLPLS,15 µM,3/3
KSFQSVLYESRNKNSVA,WASDRES,QQYHRLPAS,16 µM,2/3
KSWQSVLYISRNKNSVA,WDSTRES,QQYHRLPLS,16 µM,2/3
KSLQSVLYESRNKNSVA,WASTRES,QQYHRLPNS,16 µM,2/3
KSEQSVLYESRNKNSVA,WASTRES,QQYHRLPGF,21 µM,1/3
KSRQSVLYESRNKNSVA,FASTRES,QQWHRLPLS,21 µM,2/3
KSCKSVLYESRNKNSVA,WQSTRES,QQYHRLPLS,24 µM,1/3
KSFQSVLYESRNKNSVA,CASTDES,QQYHRLPLS,25 µM,2/3
KPMQCVLYESRNKNSVA,WASTRES,QQYHRLPLS,40 µM,3/3
KSVQSVLYESRNKNSVA,WASTRES,QQYHWLRLS,43 µM,1/3
KSKQSVLYESRNKNSVD,WASTRES,QQYHRLALS,44 µM,2/3
KSHQSVVYESRNKNSVA,WASTRES,QQYHRLPLS,50 µM,1/3
KSPQSVLYESRNKNSVA,WNSTRES,QQYHRLQLS,70 µM,2/3
KSDQRVLYNSRNKNSVA,WASTRES,QQYHRLPLS,90 µM,2/3
KSQQSVLYESRNKNSVA,WASTRES,KQPHRLPLS,110 µM,1/3
KSVQSVLYESRAKNSVA,WPSTRES,QQYHRLPLS,160 µM,1/3
KSRQSVLYESRNKNTEA,WASTRES,QQYHRLPLS,160 µM,2/3
KSWQSVLYESRAKNSVA,WASTRES,QQYHRWPLS,180 µM,2/3
KSDQSVAYESRNKNSVA,WASTRES,QQWHRLPLS,340 µM,1/3
KSCQSVLYERRNKNSVA,WASTSES,QQYHRLPLS,nd,0/3
KSVQSVLYESRNKNSVA,WYSQRES,QQYHRLPLS,nd,0/3
KSVQMVLYESRNKNSVA,WAGTRES,QQYHRLPLS,nd,0/3
KSHQSVLYESRNKNSVS,WASCRES,QQYHRLPLS,nd,0/3
KSFQSVLYESRNKNSTA,WASTRES,QQYLRLPLS,nd,0/3
VSQQSVLYESRNKNSVA,WASTRES,QQYHRLPLS,nd,0/3
KSRQSVLYESRNANSVA,WASTRES,MQYHRLPLS,nd,0/3
KSMQSVLYESRNKNSVA,WASTRES,QEYHRRPLS,nd,0/3
KSQQSVLRESRNKNFVA,WASTRES,QQYHRLPLS,nd,0/3
KSCQSVLYESRNKNSVA,WASTRES,LQYHRLPYS,nd,0/3
KSAQSVLYESRNKNSVA,WASTRES,CQYHRLPLS,nd,0/3
ASWQSVLYESRNKQSVA,WASTRES,QQYHRLPLS,nd,0/3
KSVQSVLYESRNKNSVA,WASTRRS,QQYHRLPLS,nd,0/3

The 11 strongest on average among those seen in every replicate, once more:

| CDR-L1 | CDR-L2 | CDR-L3 | apparent Kd | detected |
|---|---|---|---|---|
| KSDQSVLYESRNKNSVA | WASQRES | QQYSRLPLS | 2.3 nM | 3/3 |
| KYAQSVLYESRNKNSVA | WASTRES | QQYDRLPLS | 3.3 nM | 3/3 |
| KSQQSVLYESRNKNSVA | WGSTRES | QQYHRLPLS | 4.7 nM | 3/3 |
| KSNNSVLYESRNKNSVA | WASTRES | QQYHRLPLS | 8.7 nM | 3/3 |
| KSNQSVLYESRNKNSVA | WASTREA | NQYHRLPLS | 12 nM | 3/3 |
| KSKQSVLYNSRNKNSVA | WASTRES | QQYHRLPLS | 13 nM | 3/3 |
| KSPQSVLPESRDKNSVA | WASTRES | QQYHRLPLS | 14 nM | 3/3 |
| KSLDSVLYQSRNKNSVA | WASTRES | QQYHRLPLS | 14 nM | 3/3 |
| KSKRSVGYESRNKNSVA | WASTRES | QQYHRLPLS | 20 nM | 3/3 |
| KSKQSVLYESRNKNSVA | WASTRES | QQYHRLPLS | 22 nM | 3/3 |
| KSDQSVLYESRNKNSVA | WASTREM | QQYHLLPLS | 24 nM | 3/3 |

The measurements come from Engelhart et al. 2022 (doi:10.1038/s41597-022-01779-4) through the FLAb antibody collection.